{
  "source": "patent US20150328157A1",
  "about": "“APPLICATION OF SILICON DIOXIDE AEROGEL AS NANO-DRUG CARRYING SYSTEM IN PHARMACY” (GRADUATE SCHOOL AT SHENZHEN, TSINGHUA UNIVERSITY, priority 2012, published 2015)",
  "details": "male, SD, rat, in vivo",
  "data": [
    {"smiles": "CC(=O)O[C@H]1C(=O)[C@@]2(C)[C@H]([C@H](OC(=O)c3ccccc3)[C@]3(O)C[C@H](OC(=O)[C@H](O)[C@@H](NC(=O)c4ccccc4)c4ccccc4)C(C)=C1C3(C)C)[C@]1(OC(C)=O)CO[C@@H]1C[C@@H]2O", "note": "[paclitaxel]", "values": [
      {"measurement": "absolute bioavailability F", "result": 2.89, "unit": "%"}
    ]}
  ]
}
